Experimental findings from PubChem BioAssay (EPA / NIEHS) are described below.

The chains behind the UniProt entries cited, without tags or fusion partners.
UniProt P41235, whole entry: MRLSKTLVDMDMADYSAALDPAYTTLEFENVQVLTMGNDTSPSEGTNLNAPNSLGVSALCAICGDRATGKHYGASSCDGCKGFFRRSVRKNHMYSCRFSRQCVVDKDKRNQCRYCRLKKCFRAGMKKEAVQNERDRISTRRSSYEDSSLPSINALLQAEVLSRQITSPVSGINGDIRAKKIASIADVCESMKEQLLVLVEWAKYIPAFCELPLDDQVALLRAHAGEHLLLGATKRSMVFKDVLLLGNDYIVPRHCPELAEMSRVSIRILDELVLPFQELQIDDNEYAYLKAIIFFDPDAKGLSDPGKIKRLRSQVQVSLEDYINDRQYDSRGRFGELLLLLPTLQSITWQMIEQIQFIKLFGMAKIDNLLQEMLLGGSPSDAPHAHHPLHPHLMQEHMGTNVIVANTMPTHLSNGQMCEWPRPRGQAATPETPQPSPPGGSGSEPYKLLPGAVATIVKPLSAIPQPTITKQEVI
UniProt P10242, whole entry: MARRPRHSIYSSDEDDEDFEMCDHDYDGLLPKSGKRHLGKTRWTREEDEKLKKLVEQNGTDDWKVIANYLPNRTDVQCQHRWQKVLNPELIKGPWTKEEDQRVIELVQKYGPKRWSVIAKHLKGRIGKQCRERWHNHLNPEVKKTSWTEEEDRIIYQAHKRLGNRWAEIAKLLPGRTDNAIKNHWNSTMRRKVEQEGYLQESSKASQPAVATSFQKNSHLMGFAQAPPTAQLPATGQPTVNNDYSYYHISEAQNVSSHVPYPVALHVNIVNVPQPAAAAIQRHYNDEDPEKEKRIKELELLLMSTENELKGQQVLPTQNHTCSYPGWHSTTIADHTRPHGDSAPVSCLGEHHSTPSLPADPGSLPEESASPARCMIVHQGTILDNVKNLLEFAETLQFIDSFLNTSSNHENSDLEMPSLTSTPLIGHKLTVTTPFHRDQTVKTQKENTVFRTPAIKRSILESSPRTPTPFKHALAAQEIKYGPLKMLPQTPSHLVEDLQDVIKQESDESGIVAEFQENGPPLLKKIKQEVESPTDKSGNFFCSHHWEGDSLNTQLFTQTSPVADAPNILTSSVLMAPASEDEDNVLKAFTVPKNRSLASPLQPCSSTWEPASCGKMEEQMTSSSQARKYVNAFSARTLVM
UniProt Q16656, whole entry: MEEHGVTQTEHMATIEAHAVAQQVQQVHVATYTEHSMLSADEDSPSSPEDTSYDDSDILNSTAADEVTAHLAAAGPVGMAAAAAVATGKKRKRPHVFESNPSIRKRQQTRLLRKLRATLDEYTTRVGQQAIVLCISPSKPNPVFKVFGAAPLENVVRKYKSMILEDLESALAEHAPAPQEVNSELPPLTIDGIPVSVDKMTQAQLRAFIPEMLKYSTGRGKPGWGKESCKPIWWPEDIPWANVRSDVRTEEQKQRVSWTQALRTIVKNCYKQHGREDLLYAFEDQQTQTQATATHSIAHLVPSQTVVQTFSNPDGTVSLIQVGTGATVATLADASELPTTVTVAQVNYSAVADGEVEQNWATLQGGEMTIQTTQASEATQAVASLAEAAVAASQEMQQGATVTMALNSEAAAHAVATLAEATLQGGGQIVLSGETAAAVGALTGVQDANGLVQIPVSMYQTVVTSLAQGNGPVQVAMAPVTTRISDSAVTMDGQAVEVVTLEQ
UniProt P01106, whole entry: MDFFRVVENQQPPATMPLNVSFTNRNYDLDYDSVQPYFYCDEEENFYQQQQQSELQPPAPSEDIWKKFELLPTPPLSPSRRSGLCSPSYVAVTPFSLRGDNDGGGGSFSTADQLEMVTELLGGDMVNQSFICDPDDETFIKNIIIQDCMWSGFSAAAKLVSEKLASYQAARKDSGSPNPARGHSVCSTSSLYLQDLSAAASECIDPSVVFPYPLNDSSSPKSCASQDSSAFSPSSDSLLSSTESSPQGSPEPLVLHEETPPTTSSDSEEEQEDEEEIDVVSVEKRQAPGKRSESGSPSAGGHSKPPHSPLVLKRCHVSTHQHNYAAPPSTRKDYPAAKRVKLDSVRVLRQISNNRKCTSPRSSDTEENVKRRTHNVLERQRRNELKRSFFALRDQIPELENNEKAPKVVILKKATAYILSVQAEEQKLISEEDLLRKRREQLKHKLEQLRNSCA
UniProt Q96RI1, whole entry: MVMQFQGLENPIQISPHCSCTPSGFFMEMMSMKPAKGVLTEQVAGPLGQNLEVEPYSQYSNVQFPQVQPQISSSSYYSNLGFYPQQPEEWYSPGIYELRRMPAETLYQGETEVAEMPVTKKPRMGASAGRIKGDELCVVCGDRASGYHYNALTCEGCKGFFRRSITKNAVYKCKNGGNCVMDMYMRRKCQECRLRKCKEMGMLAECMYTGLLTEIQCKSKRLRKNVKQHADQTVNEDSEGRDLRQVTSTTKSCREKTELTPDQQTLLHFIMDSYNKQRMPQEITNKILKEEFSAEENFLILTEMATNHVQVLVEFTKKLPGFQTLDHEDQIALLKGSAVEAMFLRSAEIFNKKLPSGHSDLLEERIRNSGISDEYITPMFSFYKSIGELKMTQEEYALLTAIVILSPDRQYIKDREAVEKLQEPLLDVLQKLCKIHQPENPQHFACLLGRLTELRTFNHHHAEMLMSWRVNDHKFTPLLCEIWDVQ
UniProt P55055, whole entry: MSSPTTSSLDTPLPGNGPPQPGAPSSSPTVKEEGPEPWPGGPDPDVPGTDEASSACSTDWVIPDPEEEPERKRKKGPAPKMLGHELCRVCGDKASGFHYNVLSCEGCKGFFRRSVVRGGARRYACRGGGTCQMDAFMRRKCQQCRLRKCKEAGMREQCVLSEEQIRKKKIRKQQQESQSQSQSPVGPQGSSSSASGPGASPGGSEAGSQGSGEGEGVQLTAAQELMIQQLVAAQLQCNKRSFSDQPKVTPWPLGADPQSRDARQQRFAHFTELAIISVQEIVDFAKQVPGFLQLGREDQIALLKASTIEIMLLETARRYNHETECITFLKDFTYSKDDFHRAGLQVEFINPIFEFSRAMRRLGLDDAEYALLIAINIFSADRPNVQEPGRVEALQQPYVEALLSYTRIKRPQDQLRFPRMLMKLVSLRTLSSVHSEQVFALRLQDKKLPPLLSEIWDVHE
UniProt P43354, whole entry: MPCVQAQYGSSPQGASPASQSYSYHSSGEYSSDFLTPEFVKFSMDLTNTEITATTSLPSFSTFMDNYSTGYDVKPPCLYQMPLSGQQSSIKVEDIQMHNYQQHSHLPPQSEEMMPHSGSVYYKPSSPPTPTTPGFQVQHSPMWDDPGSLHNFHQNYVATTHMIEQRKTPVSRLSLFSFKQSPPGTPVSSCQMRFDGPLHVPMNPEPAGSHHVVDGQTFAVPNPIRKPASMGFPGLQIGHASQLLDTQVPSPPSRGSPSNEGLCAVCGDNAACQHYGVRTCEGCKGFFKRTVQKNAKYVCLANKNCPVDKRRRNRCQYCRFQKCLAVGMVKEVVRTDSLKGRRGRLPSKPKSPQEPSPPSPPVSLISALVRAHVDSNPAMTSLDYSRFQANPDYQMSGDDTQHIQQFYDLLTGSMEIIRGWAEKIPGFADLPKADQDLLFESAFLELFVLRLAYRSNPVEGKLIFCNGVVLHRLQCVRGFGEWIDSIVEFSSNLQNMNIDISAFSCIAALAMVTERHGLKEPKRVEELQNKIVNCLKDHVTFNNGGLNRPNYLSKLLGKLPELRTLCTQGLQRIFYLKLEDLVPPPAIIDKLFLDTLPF
UniProt Q13133, whole entry: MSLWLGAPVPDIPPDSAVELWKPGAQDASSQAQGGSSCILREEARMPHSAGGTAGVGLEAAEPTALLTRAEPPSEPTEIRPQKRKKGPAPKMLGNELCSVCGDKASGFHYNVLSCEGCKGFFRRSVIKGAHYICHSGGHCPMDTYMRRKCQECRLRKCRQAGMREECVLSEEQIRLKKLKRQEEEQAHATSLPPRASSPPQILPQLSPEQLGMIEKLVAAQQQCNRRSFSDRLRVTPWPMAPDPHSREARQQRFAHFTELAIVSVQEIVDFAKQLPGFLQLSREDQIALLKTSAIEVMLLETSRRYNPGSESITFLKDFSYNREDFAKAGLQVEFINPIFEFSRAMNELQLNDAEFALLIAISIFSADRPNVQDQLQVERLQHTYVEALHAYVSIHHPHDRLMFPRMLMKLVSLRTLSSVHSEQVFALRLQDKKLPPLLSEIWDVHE
UniProt P04150, whole entry: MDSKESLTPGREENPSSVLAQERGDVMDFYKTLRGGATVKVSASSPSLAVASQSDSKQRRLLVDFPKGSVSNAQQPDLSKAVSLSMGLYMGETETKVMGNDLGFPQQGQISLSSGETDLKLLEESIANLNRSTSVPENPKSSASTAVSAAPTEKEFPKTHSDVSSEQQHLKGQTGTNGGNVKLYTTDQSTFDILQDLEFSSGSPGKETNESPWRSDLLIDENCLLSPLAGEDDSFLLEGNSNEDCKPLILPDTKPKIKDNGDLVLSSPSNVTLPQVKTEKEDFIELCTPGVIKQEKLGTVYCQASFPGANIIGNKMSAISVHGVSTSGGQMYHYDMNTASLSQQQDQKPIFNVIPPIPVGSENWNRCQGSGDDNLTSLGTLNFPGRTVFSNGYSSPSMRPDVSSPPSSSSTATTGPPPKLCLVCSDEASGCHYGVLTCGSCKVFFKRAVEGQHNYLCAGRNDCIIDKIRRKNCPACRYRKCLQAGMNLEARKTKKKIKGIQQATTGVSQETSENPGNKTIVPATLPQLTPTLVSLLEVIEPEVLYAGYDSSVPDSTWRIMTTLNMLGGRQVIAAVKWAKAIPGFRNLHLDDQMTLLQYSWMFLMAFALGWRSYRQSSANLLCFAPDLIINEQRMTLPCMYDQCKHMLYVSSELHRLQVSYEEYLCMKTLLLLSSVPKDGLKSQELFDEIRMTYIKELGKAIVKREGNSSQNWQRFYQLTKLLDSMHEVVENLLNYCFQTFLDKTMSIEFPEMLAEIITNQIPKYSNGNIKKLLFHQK
UniProt P62508, whole entry: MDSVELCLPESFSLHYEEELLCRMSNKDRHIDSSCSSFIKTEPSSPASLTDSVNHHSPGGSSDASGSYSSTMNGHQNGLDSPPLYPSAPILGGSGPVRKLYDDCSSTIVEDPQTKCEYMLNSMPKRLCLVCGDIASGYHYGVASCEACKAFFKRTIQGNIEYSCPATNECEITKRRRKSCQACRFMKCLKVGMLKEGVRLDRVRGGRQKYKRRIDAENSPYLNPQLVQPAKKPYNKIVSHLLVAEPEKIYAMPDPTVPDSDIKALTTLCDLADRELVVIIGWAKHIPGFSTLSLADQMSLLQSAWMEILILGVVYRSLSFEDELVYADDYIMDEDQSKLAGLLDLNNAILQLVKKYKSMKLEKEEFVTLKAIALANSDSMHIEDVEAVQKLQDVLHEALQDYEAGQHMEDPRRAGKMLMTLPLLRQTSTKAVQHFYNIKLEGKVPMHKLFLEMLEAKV

The target in assay [1] is Hepatocyte nuclear factor 4-alpha (Homo sapiens) (UniProt P41235). In words: ATG_HNF4a_TRANS: Attagene TRANS-FACTORIAL HepG2 Assay for human Hepatocyte Nuclear Factor 4 alpha (HNF4a) (AID 2282982; active = hit-call score of the fitted dose curve at least 0.9, where 1 is the maximum). The note with it: HepG2 HNF4a transactivation reporter, mRNA readout. A digest of the protocol: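 Gain-of-signal mRNA induction, relative to DMSO vehicle, was read after 24 h compound treatment of HepG2 cells bearing transfected GAL4-UAS reporters. Detection used RT-PCR, 6-FAM primer extension and capillary electrophoresis.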

The nature of assay [2]: ATG_M_06_TRANS: Attagene TRANS-FACTORIAL HepG2 Assay for M06 Transcription Factor (Internal Marker) (AID 2282983; active = hit-call score of the fitted dose curve at least 0.9, where 1 is the maximum). The note with it: HepG2 Attagene TRANS M06 internal marker reporter. The method, boiled down: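 Measured by capillary electrophoresis of fluorescently labelled RT-PCR products, this endpoint reflects reporter mRNA in HepG2 cells harbouring exogenous NR-GAL4 reporter constructs after 24 h exposure, with DMSO as baseline.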

Assay [3] has as its target Transcriptional activator Myb (Homo sapiens) (UniProt P10242). In words: ATG_Myb_CIS: Attagene CIS-FACTORIAL HepG2 Assay for human Myeloblastosis (Myb) Proto-Oncogene Transcription Factor (AID 2282986). Particulars: HepG2 Attagene CIS-FACTORIAL Myb reporter transcription; actives raise or lower the signal. The method, boiled down:
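HepG2 cells were transiently transfected with cis-regulated multiple reporter transcription units reflecting endogenous Myb activity, then exposed to compound for 24 hours. Reporter mRNA was measured by RT-PCR with capillary electrophoresis; bidirectional fitting versus DMSO baseline.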

Assay [4] addresses Nuclear respiratory factor 1 (Homo sapiens) (UniProt Q16656). In words: ATG_NRF1_CIS: Attagene CIS-FACTORIAL HepG2 Assay for human Nuclear Respiratory Factor 1 (NRF1) Orphan Gene (AID 2282987). The note with it: HepG2 NRF1 cis-element reporter, Attagene multiplex; actives raise or lower the signal. A digest of the protocol:
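HepG2 cells transiently transfected with multiple reporter transcription units under cis-regulatory promoter control, so endogenous transcription-factor activity is read. After 24 h compound exposure, reporter mRNA quantified by RT-PCR, fluorescent labelling, HpaI digestion and capillary electrophoresis; bidirectional fitting versus DMSO.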

The target of assay [5] is Myc proto-oncogene protein (Homo sapiens) (UniProt P01106). In words: ATG_Myc_CIS: Attagene CIS-FACTORIAL HepG2 Assay for human Myelocytomatosis (Myc) Proto-Oncogene Transcription Factor (AID 2282990). Particulars: HepG2, Attagene cis-reporter transcription factor activity; actives raise or lower the signal. A digest of the protocol: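 Transiently transfected HepG2 cells bearing cis-promoter reporter units for endogenous transcription factors; 24 h exposure. Reporter mRNA measured by RT-PCR, 6-FAM primer extension, HpaI cut and capillary electrophoresis; bidirectional fit relative to DMSO.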

A short description of assay [6]: ATG_NF_kB_CIS: Attagene CIS-FACTORIAL HepG2 Assay for human Nuclear Factor Kappa B (NF-kB) (AID 2282991). Particulars: HepG2 Attagene cis-factorial NF-kB reporter mRNA; actives raise or lower the signal. A digest of the protocol:
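HepG2 cells transiently transfected with multiplexed cis-element reporter units measuring endogenous transcription factor activity; reporter mRNA read 24 h after dosing by RT-PCR, fluorescent labelling, HpaI digestion and capillary electrophoresis. Bidirectional fit against DMSO baseline.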

Assay [7] can be described thus: ATG_NRF2_ARE_CIS: Attagene CIS-FACTORIAL HepG2 Assay for human Nuclear Factor Erythroid 2 Related Factor 2 (NFR2) response to Antioxidant Response Elements (ARE) (AID 2282992).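 For AC50: reporter mRNA level measured by RT-PCR and capillary electrophoresis fluorescence.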 Particulars: HepG2 Attagene ARE/NRF2 reporter, transcription factor activity; actives raise or lower the signal. The method, boiled down:
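Cis-factorial assay: transfected HepG2 reporter library, 24 h dosing, mRNA readout via RT-PCR/CE; DMSO-referenced bidirectional analysis.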

Assay [8] is described as follows: ATG_Oct_MLP_CIS: Attagene CIS-FACTORIAL HepG2 Assay for human Octamer-Binding Transcription Factor (Oct) (AID 2282993). The note with it: HepG2 Attagene cis-factorial Oct reporter, mRNA; actives raise or lower the signal. A digest of the protocol:
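Transient MRTU transfection of HepG2 → 24 h compound treatment → RNA isolation, reverse transcription, PCR → 6-FAM primer extension, HpaI digest → capillary electrophoresis. Activity fitted both directions against DMSO.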

Assay [9] in a line: BSK_3C_TissueFactor: BioMAP Diversity Plus: 3C Assay for Tissue Factor Biomarker Activity (AID 2282997). Particulars: BioMAP 3C HUVEC, tissue factor biomarker readout; actives raise or lower the signal. A digest of the protocol: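 Values derive from bidirectional curve fitting against DMSO of Tissue Factor ELISA signals, taken 24 h after dosing primary human umbilical vein endothelial cells.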

A short description of assay [10]: BSK_3C_uPAR: BioMAP Diversity Plus: 3C Assay for Urokinase-type plasminogen activator receptor (uPAR) Biomarker Activity (AID 2282998). The note with it: BioMAP 3C HUVEC, uPAR biomarker ELISA; actives raise or lower the signal. The method, boiled down:
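ELISA readout of uPAR on human vascular endothelium (umbilical vein primary cells), taken 24 h after chemical dosing. Increases and decreases are both fitted relative to DMSO vehicle.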
On the technique in general: An ELISA detects its analyte on a solid surface through an enzyme-linked reagent.

Assay [11] is described as follows: BSK_3C_VCAM1: BioMAP Diversity Plus: 3C Assay for Vascular cell adhesion molecule 1 (VCAM1) Biomarker Activity (AID 2282999). The note with it: BioMAP 3C HUVEC, VCAM1 ELISA, cytokine-stimulated; actives raise or lower the signal. The method, boiled down: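 Human umbilical vein endothelial cells (3C system), biomarker read by ELISA 24 h after dosing; bidirectional fit against DMSO baseline. Cytotoxicity tracked by SRB total-protein staining in parallel cultures at biomarker time.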

Assay [12] in a line: BSK_4H_Eotaxin3: BioMAP Diversity Plus: 4H Assay for Eotaxin 3 Biomarker Activity (AID 2283000).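 For outcome: CCL26 protein level quantified by ELISA in parallel with SRB cytotoxicity check.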 Particulars: actives raise or lower the signal; primary human endothelial cells (HUVEC). The method, boiled down:
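Endothelial primary cells (human umbilical vein) exposed to compound for 24 h. ELISA detection of Eotaxin-3.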

Assay [13] deals with Bile acid receptor (Homo sapiens) (UniProt Q96RI1). In words: ATG_FXR_TRANS: Attagene TRANS-FACTORIAL HepG2 Assay for Farnesoid X Receptor (FXR) (AID 2282979; active = hit-call score of the fitted dose curve at least 0.9, where 1 is the maximum;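 note: hits raise reporter mRNA above DMSO so AC50 marks FXR activation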). Particulars: HepG2 Attagene TRANS FXR-GAL4 reporter transcription. A digest of the protocol: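 Chimeric FXR-GAL4 activity in transiently transfected human HepG2 liver cells is scored as induction of reporter mRNA after 24 h of dosing. Detection uses RT-PCR with fluorescent labelling and capillary electrophoresis, with DMSO serving as baseline.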

The target in assay [14] is Oxysterols receptor LXR-beta (Homo sapiens) (UniProt P55055). In words: ATG_LXRb_TRANS: Attagene TRANS-FACTORIAL HepG2 Assay for human Liver X Receptor beta (LXRb) (AID 2282981; active = hit-call score of the fitted dose curve at least 0.9, where 1 is the maximum). The note with it: HepG2 Attagene TRANS GAL4-LXRb reporter, mRNA. The method, boiled down:
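Gain-of-signal mRNA reporter endpoint, DMSO as negative control. Transiently transfected HepG2 cells carrying the NR-Gal4 chimera and GAL4-UAS reporter units were treated 24 h; transcripts quantified by RT-PCR and capillary electrophoresis fluorescence.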

A short description of assay [15]: ATG_M_32_TRANS: Attagene TRANS-FACTORIAL HepG2 Assay for M32 Transcription Factor (Internal Marker) (AID 2282984; active = hit-call score of the fitted dose curve at least 0.9, where 1 is the maximum;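 note: transcript level of a background control reporter unit measured by RT-PCR and capillary electrophoresis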). Particulars: HepG2 Attagene TRANS M32 internal marker reporter. A digest of the protocol: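 Capillary electrophoresis of 6-FAM-labelled reporter fragments gives the signal; data fitted for gain over DMSO negative control. Source: HepG2 cells bearing transient multiple reporter transcription units, 24 h exposure.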

Assay [16] is described as follows: ATG_GAL4_TRANS: Attagene TRANS-FACTORIAL HepG2 Assay for GAL4 (Internal Marker) (AID 2282976; active = hit-call score of the fitted dose curve at least 0.9, where 1 is the maximum). The note with it: HepG2 Attagene TRANS GAL4 internal marker reporter. A digest of the protocol: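 Fluorescence from capillary electrophoresis of labelled RT-PCR products quantifies reporter mRNA induction after 24 h dosing of HepG2 cells carrying transfected GAL4-UAS reporter transcription units. Vehicle DMSO serves as baseline.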

In assay [17] the target is Nuclear receptor subfamily 4 group A member 2 (Homo sapiens) (UniProt P43354). In words: ATG_NURR1_TRANS: Attagene TRANS-FACTORIAL HepG2 Assay for human Nuclear Receptor Related Protein 1 (NURR1) (AID 2282985; active = hit-call score of the fitted dose curve at least 0.9, where 1 is the maximum). Particulars: HepG2 Attagene TRANS reporter, mRNA readout. The method, boiled down:
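HepG2 / transient MRTU transfection / 24 h compound exposure / RT-PCR + CE fluorescence of reporter mRNA / gain-of-signal vs DMSO.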

Assay [18] has as its target Oxysterols receptor LXR-alpha (Homo sapiens) (UniProt Q13133). In words: ATG_LXRa_TRANS: Attagene TRANS-FACTORIAL HepG2 Assay for human Liver X Receptor alpha (LXRa) (AID 2282980; active = hit-call score of the fitted dose curve at least 0.9, where 1 is the maximum). The note with it: HepG2 Attagene TRANS reporter, LXRa transactivation. A digest of the protocol: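 Transient HepG2 transfectants, 24 h dosing, RT-PCR/CE mRNA reporter quantitation; gain-of-signal vs DMSO.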

The target in assay [19] is Glucocorticoid receptor (Homo sapiens) (UniProt P04150). In words: ATG_GR_TRANS: Attagene TRANS-FACTORIAL HepG2 Assay for human Glucocorticoid Receptor (GR) (AID 2282978; active = hit-call score of the fitted dose curve at least 0.9, where 1 is the maximum;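 note: activators score as hits since higher reporter transcript over DMSO is fitted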). Particulars: HepG2 Attagene TRANS GR reporter, mRNA transcription.
Assay [20] has as its target Estrogen-related receptor gamma (Homo sapiens) (UniProt P62508). In words: ATG_ERRg_TRANS: Attagene TRANS-FACTORIAL HepG2 Assay for human Estrogen-Related Receptor gamma (ERRg) (AID 2282977; active = hit-call score of the fitted dose curve at least 0.9, where 1 is the maximum;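 note: hits increase reporter signal over DMSO so potencies reflect activators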). Particulars: HepG2 Attagene TRANS reporter, ERRg transactivation. A digest of the protocol: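 HepG2 cells transiently transfected with multiplexed GAL4-UAS reporter units and chimeric NR-Gal4 constructs were exposed to test chemicals for 24 h. Reporter mRNA was measured by RT-PCR, 6-FAM primer extension, HpaI digestion and capillary electrophoresis; gain-of-signal versus DMSO.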

Only a part is listed here, and it is no random draw. Records with an inconclusive call do not appear. Activity calls are given as the source filed them. Rule for the calls, unless noted: active = hit-call score of the fitted dose curve at least 0.9, where 1 is the maximum; inactive = score below 0.9.

Take `Cc1ccc([N+](=O)[O-])cc1[N+](=O)[O-]`: the result in assay [1], in assay [2], in assay [3], in [4], in [5] and in assay [6] was inactive. Also, the result in assay [7], in [8], in [9], in assay [10], in [11] and in assay [12] was inactive.
For the molecule `CC(C)N(CCO)C(C)C`, the molecule was classed as inactive in assay [13], in assay [14], in [2], in assay [15], in assay [3] and in assay [4]. In addition, the call in assay [5], in assay [6], in assay [7] and in assay [8] was inactive.
Usually AC50 stands for the concentration at which the activity in the assay is half-maximal. Regarding `CC(C)OP(C)(=O)OC(C)C`, the outcome in assay [16], in [14], in assay [15], in assay [17], in [3] and in assay [4] was inactive. Also, the molecule was called inactive in assay [5], in [6], in assay [7], in [8], in assay [9] and in [10]. Moreover, in assay [11], the outcome was inactive. Also, the AC50 in assay [12] was active: 25 µM.
With `CN(C)CCCl`, the outcome in [18], in assay [15], in assay [3], in [4], in assay [5] and in assay [6] was inactive. Also, the result in assay [7] and in [8] was inactive.
`Cc1ccc([N+](=O)[O-])c([N+](=O)[O-])c1`: the outcome in assay [19], in [18], in [2], in [15], in [17] and in [3] was inactive. The molecule was classed as inactive in assay [4], in assay [5], in assay [6], in assay [8] and in assay [10]. The AC50 was active: 6.81 µM in assay [7], active: 4.43 µM in [9], active: 4.08 µM in assay [11] and active: 3.97 µM in assay [12].
For `Cc1cccc([N+](=O)[O-])c1[N+](=O)[O-]`, the outcome in [20], in assay [18], in assay [14], in assay [2], in [15] and in assay [3] was inactive. Further, the result in assay [4], in assay [5], in assay [9], in [10] and in [12] was inactive. The AC50 in assay [6] is active: 118 µM; in assay [7] it was active: 10.6 µM; in assay [8] it was active: 92.3 µM; in assay [11], active: 6.34 µM.
